Measured values as given in US11247972B2, “Compositions and methods for treating toxoplasmosis, cryptosporidiosis, and other apicomplexan protozoan related diseases” (University of Washington through its Center for …, priority 2010, dated 2022).

Tested on: P. falciparum
Test: P. falciparum NF54 gametocyte exflagellation with compound in blood
Type: cell-based, Plasmodium falciparum
Conditions: 0.3 μM, repeat experiment

CCOc1ccc2cc(-c3nn(CC4CCNCC4)c4ncnc(N)c34)ccc2c1 [Compound 29, 3-(6-ethoxynaphthalen-2-yl)-1-(piperidin-4-ylmethyl)-1H-pyrazolo[3,4-d]pyrimidin-4-amine]
suppression of exflagellation events: > 90%
